Molecules are shown by their SMILES.

In the experiment the test system is Adenosine receptor A2a (Bos taurus). Description: Inhibition of specific [3H]-CGS- 21680 binding at Adenosine A2A receptor in bovine striatal membranes at 20 uM. The following applies: Striatum, Membrane.
In turn, `O=C(Cc1ccccc1)Nc1nc2ccccc2c2cn(-c3ccccc3)nc12` displayed an inhibition of 13%.
As to `Cc1ccc(-n2cc3c(n2)c(=O)[nH]c2ccccc23)cc1`, the inhibition was 22%.
As for `CCCn1c(=O)c2nn(-c3ccccc3)cc2c2ccccc21`, the inhibition worked out at 50%.
In the case of `Cn1c(=O)c2nn(-c3ccccc3)cc2c2ccccc21`, the inhibition was 47%.
Consider `O=C(Nc1nc2ccccc2c2cn(-c3ccccc3)nc12)c1ccccc1`, for which the inhibition was found to be 3%.
As to `Cc1ccc(-n2cc3c(n2)c(NC2CCCCC2)nc2ccccc23)cc1`, the inhibition turned out to be 13%.
Molecule `Cc1ccc(-n2cc3c(n2)c(N)nc2ccccc23)cc1` had an inhibition of 21%.

The values above are taken from ChEMBL document CHEMBL1133616, “Synthesis and structure-activity relationships of a new set of 2-arylpyrazolo[3,4-c]quinoline derivatives as adenosine receptor antagonists” (J Med Chem, 2000).
